The record followed here is publication PMC8640019, “Discovery of an exosite on the SOCS2-SH2 domain that enhances SH2 binding to phosphorylated ligands” (Nature Communications, 2021).

Test [1] deals with SOCS2^32-198-EloB/C (human) (UniProt O14508). Put plainly: ITC; 298 K, Microcal ITC200; 25 mM Hepes pH 7.5, 150 mM NaCl, 2 mM TCEP; typically 12 x 3.25 µL of 240 µM peptide (syringe) into 30 µM SOCS-EloB/C (cell); where a second peptide or Cullin5 NTD stands in the cell the protein was with it beforehand (25 µM SOCS2-EloB/C pre-incubated with 60 µM F3); single-site fit.
For test [2] the target is unchanged. The description is as above. This is another data set of the same source.
Test [3] has as its target SOCS2-Elo B/C + GHR pY595 (UniProt O14508). The test is described as above.
The target in test [4] is SOCS2^32-198-EloB/C (human) (UniProt O14508). Put plainly: ITC; 298 K; typically 240 μM peptide titrated into 30 μM SOCS-EloB/C; 25 mM Hepes pH 7.5, 150 mM NaCl, 2 mM TCEP; single-site fit.
The next test deals with CIS-Elo B/C + F3 (human) (UniProt Q9NSE2). Put plainly: ITC; 298 K, Microcal ITC200; 25 mM Hepes pH 7.5, 150 mM NaCl, 2 mM TCEP; typically 12 x 3.25 µL of 240 µM peptide (syringe) into 30 µM SOCS-EloB/C (cell); where a second peptide or Cullin5 NTD stands in the cell the protein was with it beforehand (25 µM SOCS2-EloB/C pre-incubated with 60 µM F3); single-site fit. (In general: In ITC the heat of successive injections is recorded.)

Another test deals with CIS-Elo B/C (human) (UniProt Q9NSE2). Described as above.
For test [5], the target named is SOCS2^32-198-EloB/C (human) (UniProt O14508). Put plainly: ITC; 298 K; typically 240 μM peptide titrated into 30 μM SOCS-EloB/C; 25 mM Hepes pH 7.5, 150 mM NaCl, 2 mM TCEP; single-site fit. The source holds these as a separate data set.

Where “and” joins values, the source holds several entries; their conditions need not be identical. Equal entries are not always repeated. Where two headings read alike, the source gives them in different places.

With E11 peptide, the Kd (commonly a measure of binding affinity in units of concentration) in test [1] came out at 4.17 µM. Besides, in test [2], the Ka was 386000 M⁻¹ and 174000 M⁻¹; the Kd was 2.59 µM and 5.75 µM; the stoichiometry N (as a rule, the number of molecules, sites or subunits per partner or assembly) is 0.578 and 0.828. Also, in test [3], the Ka worked out at 4.69e+06 M⁻¹, the Kd was found to be 0.21 µM and the stoichiometry N was 0.791.
In test [4], “three unique non-phosphorylated peptides” came in with a Kd of 1.68 to 19.3 µM.
Consider JAK3 pY980/981 peptide, for which, in the test with CIS-Elo B/C + F3 (human), the Ka was 1.99e+07 M⁻¹, the Kd was 0.05 µM and the stoichiometry N turned out to be 0.634. The substance also registered an equilibrium dissociation constant (Kd) with CIS-Elo B/C (human) of 0.8 µM.
F3 peptide D9A: the Kd in test [5] worked out at 3.18 µM.
Regarding F3 D9A peptide, in test [1], the Ka is 311000 M⁻¹ and 341000 M⁻¹; the Kd was 3.39 µM and 2.96 µM; the stoichiometry N is 0.78 and 0.79.
Turning to C4 peptide, the Kd in test [1] was 19.3 µM; in test [2], 32.6 µM and 6.02 µM; in test [3], 0.93 µM. For the same substance, the Ka in test [3] worked out at 1.08e+06 M⁻¹. For the same substance, the stoichiometry N in test [3] came to 0.834.
